# Data as given in US20120190579A1, “Functionalisation of Solid Substrates” (priority 2009, published 2012).
# The chains behind the UniProt entries cited, without tags or fusion partners. Where a name states a change or a piece, a line headed by the entry shows the natural chain unless it says otherwise.
# UniProt P30874: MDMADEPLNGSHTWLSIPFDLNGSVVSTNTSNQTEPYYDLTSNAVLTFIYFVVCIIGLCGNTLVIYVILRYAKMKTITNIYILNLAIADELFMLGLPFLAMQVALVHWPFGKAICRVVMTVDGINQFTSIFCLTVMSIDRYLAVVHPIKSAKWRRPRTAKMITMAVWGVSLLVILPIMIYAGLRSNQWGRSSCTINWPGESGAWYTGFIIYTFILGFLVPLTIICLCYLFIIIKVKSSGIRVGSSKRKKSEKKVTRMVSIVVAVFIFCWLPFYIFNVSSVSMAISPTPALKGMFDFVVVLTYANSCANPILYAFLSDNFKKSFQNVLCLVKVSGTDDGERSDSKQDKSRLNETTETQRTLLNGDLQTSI
# Target: T1, human somatostatin receptor 2 (Homo sapiens, UniProt P30874)
# T1 construct: host or cells: HEK293 cells stably expressing Kir3.1 and Kir3.2A
# Assay: Whole cell patch-clamp current recordings of bridged somatostatin analogues
# Type: cell-based
# Settings: 20 μM; HEK 293 cells expressing HKIR3.1/3.2 channel and human somatostatin receptor 2; clamped at −60 mV
# Protocol: HEK 293 cells expressing HKIR3.1/3.2 channel and human somatostatin receptor 2 were treated with these compounds, and whole cell patch-clamp current recordings taken.
# Cell-culture methods and the generation of stable cell lines were carried out as described in J Biol Chem 275, 921-9 (2000). HEK293 cells (human embryonic kidney cell line) stably expressing Kir3.1 and Kir3.2A channels were maintained in minimum essential medium supplemented with 10% foetal calf serum and 727 μg of G418 (Invitrogen), at 37° C. in humidified atmosphere (95% O2, 5% CO2). Cells were transiently transfected with SSTR2DNA (Missouri S&T cDNA Resource Center) along with pEGFP-N1 (Clontech) for visualization of transfected cells using epifluorescence. Transfections were performed with 5 μl of Fugene HD (Roche) and 800 ng SSTR2-DNA and 40 ng EGFP-DNA per 97 μl of cell culture medium (containing no serum or antibiotics).
# Bridged somatostatins were prepared as described above. Somatostatin and its analogues were dialysed for 24 h at 4° C. in buffer (50 mM sodium phosphate, pH 6.2) to remove the organic solvents. After dialysis the concentration was determined and the peptides stored at 4° C. A final concentration of 20 μM somatostatin and analogues were used (dilution was done in the extracellular patch-clamp buffer).
# Whole cell patch-clamp current recordings were performed with an Axopatch 200B amplifier (Axon Instruments) using fire-polished pipettes with a resistance of 3-4 MΩ pulled from filamented borosilicated glass capillaries (Harvard Apparatus, 1.5 mm OD×1.17 mm ID). Data was acquired and analysed via a Digidata 1322A interface (Axon Instruments) and pCLAMP software (version 8.1, Axon Instruments). A fast perfusion system was used to apply somatostatin and analogues (Rapid Solution Changer, RSC-160, Bio-Logic France). Cells were clamped at −60 mV. […] For each cell it was assessed if flow artifacts resulting from the pressure of drug application were present. […]
row,Substance,activation of GIRK currents (whole cell patch-clamp current amplitude)
1,PEGylated-dibromomaleimide bridged analogue: somatostatin reduced and bridged with N-PEG dibromomaleimide,robust activation of GIRK currents in an amplitude comparable to somatostatin iteslf
2,dibromomaleimide bridged analogue: somatostatin whose two reduced cysteine residues are bridged by reaction with dibromomaleimide,robust activation of GIRK currents in an amplitude comparable to somatostatin iteslf
3,fluorescein dibromomaleimide-bridged analogue: somatostatin reduced and bridged with N-fluorescein dibromomaleimide,robust activation of GIRK currents in an amplitude comparable to somatostatin iteslf
